Measurements reported in paper PMC4111509 (PLoS ONE, 2014).

Legend:
Experiment in all cases: purified protein
[1] = system: CN(CCc1ccc(O)cc1)Cc1ccc(O)c(O)c1; settings: AdoMet co-substrate, glycine pH 8.8, 5 mM MgCl2, 37°C, Pfs nucleosidase added to remove SAH
[2] = system: C[S+](CC[C@H](N)C(=O)O)C[C@H]1O[C@@H](n2cnc3c(N)ncnc32)[C@H](O)[C@@H]1O; settings: norbelladine as saturated substrate, glycine pH 8.8, 5 mM MgCl2, 37°C, Pfs nucleosidase added to remove SAH
[3] = system: Oc1ccc(CCNCc2ccc(O)c(O)c2)cc1; settings: AdoMet co-substrate, glycine pH 8.8, 5 mM MgCl2, 37°C, Pfs nucleosidase added to remove SAH

Substance: NpN4OMT1 (Narcissus aff. pseudonarcissus MK-2014)
- Km [1]: 1.9 ± 0.4 µM
- kcat [1]: 0.0433 s⁻¹
- kcat/Km [1]: 21700 M⁻¹ s⁻¹
- Km [2]: 28.5 ± 1.6 µM
- kcat [2]: 0.075 s⁻¹
- kcat/Km [2]: 2670 M⁻¹ s⁻¹
- Km [3]: 1.6 ± 0.3 µM
- kcat [3]: 0.0217 s⁻¹
- kcat/Km [3]: 13300 M⁻¹ s⁻¹
